# miR-21 FLuc = raises the signal of a miR-21 reporter; HeLa miR-21 FLuc reporter, luciferase, 48 h; Potency, µM (top dose mostly 38.3 µM), for inactives: at the highest dose reporter change, positive = more light; AID 2288; 340,000 tested, under 10 active; active = well fitted rising curve with a large enough effect; inconclusive = small, poorly fitted or top-dose-only effect; inactive = no such curve, though single readings can be large or run the other way;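 note: % of control where 0% means no effect; miR-21 action dims this reporter so a rising signal means less miR-21 action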
#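 Using DMEM plus 10% FBS, HeLa miR-21-FLuc cells are incubated with test compounds (final up to about 40uM) for 48 hours; firefly luciferase signal is then imaged following reagent-mediated lysis.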
# Nrf2 activator = activates Nrf2 signaling. actives 0.31% (n = 410,000). AREc32 ARE-luciferase reporter (MCF7-derived line), luminescence, 24 h. Potency, µM (series often up to 46.1 µM), for inactives: at the top dose activation, usual class: activators; also: potency is read from the fitted curve at half-maximal effect; % of control where 0% means no effect; nearly all actives have a fitted effect of over 65% in size
#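 AREc32 cells carrying an ARE-driven firefly luciferase reporter were seeded at 1000 cells/well in OPTI-MEM with 5% FBS, then exposed to compound for 24 hr at 37 deg C. Luminescence was read with Steady-Glo after 30 min at RT.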
# A549 viability = counter-screen for Nrf2 inhibitors: cytotoxicity in A549 cells | A549 ARE-Fluc cells, CellTiter-Fluor viability, 18-24 h | Potency, µM (series often up to 46 µM), for the others: at the top dose activity change, negative = cytotoxicity, usual class: inhibitors | actives 0.16% (n = 390,000) | AID 504648; also: potency is read from the fitted curve at half-maximal effect; % is scaled to controls: 0 for no effect and ±100 for the full control effect
#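 A549 ARE-Fluc cells in 5% FBS OPTI-MEM, 5000 cells/well, rested 2 h then exposed to compounds in concentration-response for 18-24 h at 37 °C. Viability by CellTiter-Fluor fluorescence (Ex 405/Em 525) after 30 min; luciferase luminescence (BugLite, 15 min, RT) read afterwards.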
# GRP78 ERSR act = ER stress response induction in glioma | U87-MG GRP78 promoter luciferase reporter, 16 h | Potency, µM, for the others: top-dose activation, actives largely listed as activators | actives 0.02% (n = 420,000) | AID 602332; also: potency is read from the fitted curve at half-maximal effect; series mostly up to about 76 µM; % of control where 0% means no effect; nearly all actives have a fitted effect of over 35% in size
#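 ERSR induction read as luciferase luminescence (Bright-Glo, 10 min at room temperature) in stably transfected human U87-MG glioma cells exposed to compounds for 16 h, using GRP78 as sensor.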
# Nrf2 inh = inhibitors of Nrf2 signaling | A549 ARE-Fluc reporter, luciferase luminescence, 18-24 h | Potency, µM (doses to about 46 µM), for inactives: top-dose activity change, negative = inhibition, most hits filed as inhibitors | actives 2.1% (n = 360,000) | AID 504444; also: potency is read from the fitted curve at half-maximal effect; % is scaled to controls: 0 for no effect and ±100 for the full control effect; nearly all actives have a fitted effect of over 60% in size
#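 Cells were seeded and rested 2 h, then exposed to compounds for 18-24 h. CellTiter-Fluor was read first as a viability measure. BugLite was added 15 min before the final luminescent read of ARE-luciferase activity in A549 cells.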
# Mito fusion yeast = blocks mitochondrial division or promotes mitochondrial fusion. S. cerevisiae fusion-defective mutant growth rescue, CellTiterGlo 48 h. Potency, µM (doses to about 46.1 µM), for inactives: at the top dose growth rescue (activation), usual class: activators. actives 0.23% (n = 320,000). AID 485298; also: potency is read from the fitted curve at half-maximal effect; % of control where 0% means no effect; nearly all actives have a fitted effect of over 45% in size
#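 Yeast fusion mutant, YPEG (non-fermentable carbon), compound, 48 h at 37C non-permissive; CellTiterGlo added, 10 min RT, luminescence read. Rescued growth = division inhibition.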
# Starred values were filed as active, the others as inactive; ? = inconclusive; / = no result given. Rows were chosen to be rich in hits. Some 2.3% of all compounds tested hit in one or more screens of this group. Unless noted, calls follow the shape of the dose curve; as a rule, active = well fitted curve in the direction sought with a large enough effect; inconclusive = small, poorly fitted or top-dose-only effect, or another doubt; inactive = no such curve, though single readings can be large; an effect the other way counts as inactive or inconclusive.
# Keys: A = miR-21 FLuc; B = Nrf2 activator; C = A549 viability; D = GRP78 ERSR act; E = Nrf2 inh; F = Mito fusion yeast
1	Brc1ccc(C2=Nn3c(nnc3-c3n[nH]c4c3CCC4)SC2)cc1
  A = 14%	B = 7%	C = -30%	D = -3%	E = ?	F = 16µM*
2	Clc1ccc(CN(CC2CCCO2)C(c2cccs2)c2nnnn2C2CCCC2)cc1 (configuration not stated)
  A = -2%	B = 0%	C = -26%	D = -3%	E = 12µM*	F = -4%
3	CCc1ccc(OCC(=O)NNC(=S)NC(=O)C2CC2)c(Br)c1
  A = 13%	B = 0%	C = -15%	D = 4%	E = 6.5µM*	F = -28%
4	Cc1cc2c(N3CCCCC3C)ncnc2s1 (configuration not stated)
  A = 2%	B = 2%	C = -13%	D = -6%	E = 21µM*	F = -2%
5	Cc1c(C(=O)O)sc2ncnc(N3CCCCC3C)c12 (configuration not stated)
  A = -7%	B = 0%	C = -29%	D = -2%	E = ?	F = -3%
6	Brc1cc(Cc2nnc(-c3ccccc3)o2)c(Br)s1
  A = -1%	B = 8.9µM*	C = -4%	D = 2%	E = ?	F = 1%
7	Cc1c(CCC(=O)N2CCC[C@H]2C(=O)O)c(=O)oc2c(C)c3oc4c(c3cc12)CCCC4
  A = 12%	B = -3%	C = -9%	D = -9%	E = 6.5µM*	F = 3%
8	Cc1c(CCC(=O)NCCCCCC(=O)O)c(=O)oc2c(C)c3oc4c(c3cc12)CCCC4
  A = -3%	B = -1%	C = 2%	D = -8%	E = ?	F = 33%
9	CC(C)c1ncc(S(=O)(=O)c2ccc(C(F)(F)F)cn2)c(N)n1
  A = -4%	B = -1%	C = -1%	D = -3%	E = -7%	F = -1%
10	COCCn1c(CCC(=O)O)nc2c1c(=O)[nH]c(=O)n2CC(C)C
  A = 0%	B = -1%	C = -4%	D = -3%	E = -17%	F = 1%
11	CCC(=O)C1=C(c2ccc(OC)c(OC)c2)N(C(=O)CC)n2c(CC)nnc2S1
  A = 6%	B = 8%	C = -8%	D = 5%	E = 23µM*	F = /
12	O=C(NC(=S)Nc1cccnc1Cl)c1ccco1
  A = -46%	B = 13µM*	C = 14%	D = -2%	E = ?	F = 16%
13	O=C(NC(=S)NCc1ccc(Cl)cc1)c1ccco1
  A = /	B = 7%	C = 6%	D = -4%	E = 16µM*	F = /
14	Cc1ccc2nsnc2c1NC(=S)NC(=O)c1ccco1
  A = -8%	B = 6.3µM*	C = 2%	D = -4%	E = 4%	F = -10%
15	O=C(NC(=S)Nc1cccc(O)c1)c1ccco1
  A = -50%	B = 11µM*	C = 2%	D = 4%	E = ?	F = -5%
16	O=C(NC(=S)NCc1ccc(Cl)cc1Cl)c1ccco1
  A = /	B = 5%	C = 4%	D = 0%	E = -16%	F = /
17	Cc1ccc2nc(NC(=S)NC(=O)c3ccco3)sc2c1
  A = -73%	B = ?	C = -3%	D = -3%	E = ?	F = 4%
18	COC(=O)c1ccc(Cn2c(C)c(C(=O)NCc3ccc(Cl)c(Cl)c3)sc2=O)o1
  A = /	B = 0%	C = /	D = 2%	E = /	F = /
19	COc1ccc(CSc2nnc(C)s2)cc1F
  A = -57%	B = 0%	C = 4%	D = 2%	E = ?	F = 2%
20	Fc1cccc(Cl)c1C1Nc2cccc3cccc(c23)N1
  A = 0%	B = ?	C = -9%	D = 2%	E = -21%	F = -10%
21	Clc1cccc(Cl)c1C1Nc2cccc3cccc(c23)N1
  A = 21%	B = ?	C = ?	D = 7%	E = 9.2µM*	F = -16%
22	COc1cc(NC(=O)CN2C(=O)C(C)N(c3ccc(C)cc3)C2=O)cc(OC)c1 (configuration not stated)
  A = /	B = -1%	C = -2%	D = -1%	E = -12%	F = -11%
23	COc1cccc(NC(=O)c2ccc(CNS(=O)(=O)c3ccc4c(c3)C(C)(C)C(=O)N4C)cc2)c1
  A = ?	B = 0%	C = -2%	D = -6%	E = 16µM*	F = /
24	Cc1ccccc1NC(=O)c1ccc(CNS(=O)(=O)c2ccc3c(c2)C(C)(C)C(=O)N3C)cc1
  A = 5%	B = 0%	C = 0%	D = -1%	E = -5%	F = /
25	Cc1ccc(NC(=O)c2ccc(CNS(=O)(=O)c3ccc4c(c3)C(C)(C)C(=O)N4C)cc2)cc1C
  A = ?	B = 0%	C = -29%	D = -5%	E = 18µM*	F = /
26	Cc1cccc(NC(=O)c2ccc(CNS(=O)(=O)c3ccc4c(c3)C(C)(C)C(=O)N4C)cc2)c1
  A = ?	B = 0%	C = -16%	D = -5%	E = 21µM*	F = /
27	O=C(CCN1C(=O)/C(=C/c2ccc3c(c2)OCO3)SC1=S)Nc1ccc(C(=O)O)cc1
  A = 0%	B = 0%	C = 1%	D = 4%	E = -3%	F = -1%

# 3 of the entries above in order of the GRP78 ERSR act value, low to high.
cpd | canonical_smiles | miR-21 FLuc | GRP78 ERSR act | Mito fusion yeast
7 | Cc1c(CCC(=O)N2CCC[C@H]2C(=O)O)c(=O)oc2c(C)c3oc4c(c3cc12)CCCC4 | 12% | -9% | 3%
23 | COc1cccc(NC(=O)c2ccc(CNS(=O)(=O)c3ccc4c(c3)C(C)(C)C(=O)N4C)cc2)c1 | ? | -6% | /
15 | O=C(NC(=S)Nc1cccc(O)c1)c1ccco1 | -50% | 4% | -5%

# Source: PubChem (National Center for Advancing Translational Sciences (NCATS))
